Results as given in US20130102618A1, “3-AMINO-5,6-DIHYDRO-1H-PYRAZIN-2-ONE DERIVATIVES USEFUL FOR THE TREATMENT OF ALZHEIMER'S DISEASE AND OTHER FORMS OF DEMENTIA” (JANSSEN PHARMACEUTICA NV, priority 2010, published 2013).

Sequences of proteins named here, by UniProt entry; tags and fusion partners are left off. Residues count along the entry.
UniProt P56817, 46-501 limits assumed: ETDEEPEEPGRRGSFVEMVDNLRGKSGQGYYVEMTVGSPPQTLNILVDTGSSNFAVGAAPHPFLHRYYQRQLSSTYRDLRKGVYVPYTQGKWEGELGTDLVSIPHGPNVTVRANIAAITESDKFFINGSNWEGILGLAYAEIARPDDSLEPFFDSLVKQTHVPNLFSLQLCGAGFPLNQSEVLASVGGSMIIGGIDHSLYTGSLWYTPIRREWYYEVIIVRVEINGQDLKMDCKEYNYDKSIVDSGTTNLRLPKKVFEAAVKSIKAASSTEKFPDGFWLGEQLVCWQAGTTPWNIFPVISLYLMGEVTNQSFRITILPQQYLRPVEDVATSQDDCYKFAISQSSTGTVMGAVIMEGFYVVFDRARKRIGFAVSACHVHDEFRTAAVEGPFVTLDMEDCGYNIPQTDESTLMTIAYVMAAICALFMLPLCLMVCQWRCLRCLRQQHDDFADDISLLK

How the values were obtained:
[1] = molecular target: recombinant BACE1 protein (Homo sapiens, UniProt P56817); experiment: Biochemical FRET based assay; conditions: recombinant BACE1 1 μg/ml, APP-derived Swedish-mutation peptide substrate, 120 minutes, room temperature, pH 5.0
[2] = test system: Aβ42 produced and secreted into the medium of human neuroblastoma SKNBE2 cells; experiment: Cellular αlisa assay in SKNBE2 cells, Aβ42; assay type: cell-based; conditions: SKNBE2 expressing wild type hAPP695, incubated for 18 hours
[3] = test system: Aβtotal produced and secreted into the medium of human neuroblastoma SKNBE2 cells; experiment: Cellular αlisa assay in SKNBE2 cells, Aβtotal; conditions: SKNBE2 expressing wild type hAPP695, incubated for 18 hours

| Biochemical FRET based assay pIC50 [1] | Cellular αlisa assay in SKNBE2 cells Aβ42 pIC50 [2] | Cellular αlisa assay in SKNBE2 cells Aβtotal pIC50 [3] | Biochemical FRET based assay pIC50 ([1]; tested form: hydrochloride) | Cellular αlisa assay in SKNBE2 cells Aβ42 pIC50 ([2]; tested form: hydrochloride) | Cellular αlisa assay in SKNBE2 cells Aβtotal pIC50 ([3]; tested form: hydrochloride) | Structure (SMILES) |
| --- | --- | --- | --- | --- | --- | --- |
| 5.04 | 5.47 | 5.52 |  |  |  | CN1C[C@@](C)(c2cc(-c3cncnc3)c(F)cc2F)N=C(N)C1=O |
| 5.42 | 5.76 | 5.70 |  |  |  | COc1cncc(-c2cc([C@]3(C)CN(C)C(=O)C(N)=N3)c(F)cc2F)c1 |
| <4.52 | <5 | <5 |  |  |  | CN1C[C@](C)(c2cc(-c3cncnc3)c(F)cc2F)N=C(N)C1=O |

The remaining lines, values behind:

| Structure (SMILES) | Biochemical FRET based assay pIC50 [1] | Cellular αlisa assay in SKNBE2 cells Aβ42 pIC50 [2] | Cellular αlisa assay in SKNBE2 cells Aβtotal pIC50 [3] | Biochemical FRET based assay pIC50 ([1]; tested form: hydrochloride) | Cellular αlisa assay in SKNBE2 cells Aβ42 pIC50 ([2]; tested form: hydrochloride) | Cellular αlisa assay in SKNBE2 cells Aβtotal pIC50 ([3]; tested form: hydrochloride) |
| --- | --- | --- | --- | --- | --- | --- |
| COc1cncc(-c2cc([C@@]3(C)CN(C)C(=O)C(N)=N3)c(F)cc2F)c1 | <4.52 | <5 | <5 |  |  |  |
| CN1C[C@@](C)(c2cccc(NC(=O)c3ccc(Cl)cn3)c2)N=C(N)C1=O | 6.53 | 7.08 | 7.07 |  |  |  |
| CN1CC(C)(c2cccc(-c3ccccc3)c2)N=C(N)C1=O (centres unmarked) |  |  |  | <4.52 | <5 | <5 |
| CN1C[C@](C)(c2cccc(NC(=O)c3ccc(Cl)cn3)c2)N=C(N)C1=O | <4.52 | <5 | <5 |  |  |  |
| CN1C[C@](C)(c2cc(NC(=O)c3ccc(Cl)cn3)ccc2F)N=C(N)C1=O |  |  | <5 |  |  |  |
| CN1C[C@@](C)(c2cc(NC(=O)c3ccc(Cl)cn3)ccc2F)N=C(N)C1=O |  |  | 7.60 |  |  |  |
